The chains behind the UniProt entries cited, without tags or fusion partners. Where a name states a change or a piece, a line headed by the entry shows the natural chain unless it says otherwise.
UniProt P51449: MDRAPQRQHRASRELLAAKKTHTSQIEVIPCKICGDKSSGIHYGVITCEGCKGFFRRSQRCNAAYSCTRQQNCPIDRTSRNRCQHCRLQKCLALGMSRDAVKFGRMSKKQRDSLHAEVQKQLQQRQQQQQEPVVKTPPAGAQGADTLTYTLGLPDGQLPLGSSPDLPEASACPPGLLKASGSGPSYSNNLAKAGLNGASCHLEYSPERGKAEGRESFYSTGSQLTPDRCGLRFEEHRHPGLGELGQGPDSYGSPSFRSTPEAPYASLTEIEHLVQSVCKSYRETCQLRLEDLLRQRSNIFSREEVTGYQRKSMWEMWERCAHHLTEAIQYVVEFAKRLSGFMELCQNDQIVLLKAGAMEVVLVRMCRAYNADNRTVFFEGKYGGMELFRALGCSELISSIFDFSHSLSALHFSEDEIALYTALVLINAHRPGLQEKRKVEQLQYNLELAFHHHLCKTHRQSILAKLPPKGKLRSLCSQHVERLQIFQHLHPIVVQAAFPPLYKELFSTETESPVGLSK

In US9861612B2 (priority 2014, dated 2018):

Target: RORγ ligand binding domain (Homo sapiens (Human), UniProt P51449)
Assay: biochemical
Experimental: Various concentrations of test ligands in 0.1 microlitres DMSO were dispensed to assay plates using an Labcyte Echo acoustic dispenser. Two pre-mixes were prepared and incubated for 1 hr at room temp in the dark.

| SMILES | IC50 (read-out: RORγ FRET-Mean IC50) [nM] | IC50 [nM] |
| --- | --- | --- |
| O=C(O)c1ccc(-n2cc(C(=O)c3c(Cl)cccc3C(F)(F)F)c3ccccc32)cc1 [Comparator 1, 4-[3-[2-chloro-6-(trifluoromethyl)benzoyl]-1H-indol-1-yl]benzoic acid, reference compound] | 97.4 | – |
| O=C(O)c1ccc(-n2cc(C(=O)c3c(Cl)cccc3C(F)(F)F)c3cccc(F)c32)cc1 [Compound 1, 4-[3-[2-chloro-6-(trifluoromethyl)benzoyl]-7-fluoro-1H-indol-1-yl]benzoic acid] | – | 43.6 |

Where two headings read alike, the source gives them in different places.
